The record followed here is US20200080076A1, “Expressed Barcode Libraries and Uses Thereof” (The Broad Institute, Inc., priority 2018, published 2020).

This assay relates to Watermelon-transduced PC-9 cells. In words: Sensitivity of Watermelon-transduced PC-9 cells to EGFR-TKIs, number of mCherry objects. Format: cell-based. Particulars: varying concentrations (FIGS. 6B and 6C). The text has this: FIGS. 6A-6D show the modeling of non-inherited drug resistance of PC-9 cells to EGFR tyrosine kinase inhibitors (EGFR-TKI).

In the case of `COc1cc2ncnc(Nc3ccc(F)c(Cl)c3)c2cc1OCCCN1CCOCC1` [gefitinib], the “sensitivity of cells to EGFR-TKI (number of mCherry objects)” value is on record as “sensitive”.
